# According to patent publication US20230346820A1, “METHODS AND COMPOSITIONS FOR THE TREATMENT OF SARS-COV-2” (priority 2020, published 2023):
# Assays:
# [1] = system: SARS-CoV-2
# [2] = system: SARS-CoV-2; remark: listed apart in the source
compound,measurement,setting,value
COc1ccc(C[C@H]2NC[C@H](O)[C@H]2OC(C)=O)cc1 [ANISOMYCIN],HeLa-ACE2 SI CC50/CoV-2 EC50,[1],2.85
same,Calu3 SI CC50/CoV-2 EC50,[2],46.98
